{"source": "patent US20250222108A1", "about": "“MEDICAL AGENT INCLUDING ADJUVANT AND COMPOSITE OF PHOTOSENSITIVE MOLECULE AND MOLECULE BINDING TO CANCER-SPECIFIC CELL SURFACE MOLECULE” (KYOTO UNIVERSITY, priority 2021, published 2025)", "origin": "cited, not measured here", "system": "human dendritic cells", "details": "FaDu cells treated and light-irradiated, co-cultured with dendritic cells, then polyI:C; versus control without light irradiation; cited from earlier work"}
{"substance": "cetuximab IRDye 700DX: cetuximab conjugated with IRDye 700DX, as described in Patent Literature 1", "values": [{"measurement": "CD80 expression level of human dendritic cells", "result": "increased"}, {"measurement": "CD86 expression level of human dendritic cells", "result": "increased"}]}
